{"source": "patent US8829203B2", "about": "“3′,6-substituted indirubins and their biological applications” (Centre National de la Recherche Scientifique (CNRS), priority 2008, dated 2014)", "test_system": "SH-SY5Y neuroblastoma cells", "assay": "cells", "conditions": "Homo sapiens, 48 h, read-out: SH-SY5Y cell survival IC50, 48 h incubation, MTS reduction", "data": [{"smiles": "COCCN1CCN(CCO/N=C2/C(=C3/C(=O)Nc4cc(Br)ccc43)Nc3ccccc32)CC1", "note": "[Cpd 14]", "values": [{"measurement": "IC50", "value": "> 100", "unit": "µM"}]}]}
